{"source": "paper PMC3158247", "about": "(Journal of medicinal chemistry, 2011)", "tested_on": "CL57BL/6 mice", "conditions": "single intravenous bolus, […] 1a and 7.9 mg/kg 3c respectively, over 24 hours"}
{"smiles": "Fc1cccc(Cl)c1C1CC(c2ccc(Cl)cc2)Nc2ncnn21", "note": "(racemic) [Compound 1a, 7-(2-Chloro-6-fluorophenyl)-5-(4-chlorophenyl)-4,5,6,7-tetrahydro-[1,2,4]triazolo[1,5-a]pyrimidine]", "values": [{"measurement": "morbidity, mortality, weight loss", "value": "neither compound caused observable morbidity, mortality, or weight loss"}]}
